Values of other authors in patent publication US20240189234A1, “SILICON PARTICLES FOR DRUG DELIVERY” (NACAMED AS, priority 2021, published 2024).

Details: calculated log P values from Foye's Principles of Medicinal Chemistry

SMILES	log P
C[C@H](CCc1ccccc1)NC[C@H](O)c1ccc(O)c(C(N)=O)c1 [dilevalol]	3.09
OCCN1CCN(CCCN2c3ccccc3Sc3ccc(C(F)(F)F)cc32)CC1 [fluphenazine]	3.92
